Molecular target: T1, glycogen phosphorylase (from rabbit muscle, Sigma P1261) (Oryctolagus cuniculus, UniProt P00489)
T1 construct: glycogen phosphorylase (from rabbit muscle, Sigma P1261); purchased Sigma P1261; host or cells: rabbit muscle (tissue-derived)
T1 sequence (P00489 2-843 limits assumed): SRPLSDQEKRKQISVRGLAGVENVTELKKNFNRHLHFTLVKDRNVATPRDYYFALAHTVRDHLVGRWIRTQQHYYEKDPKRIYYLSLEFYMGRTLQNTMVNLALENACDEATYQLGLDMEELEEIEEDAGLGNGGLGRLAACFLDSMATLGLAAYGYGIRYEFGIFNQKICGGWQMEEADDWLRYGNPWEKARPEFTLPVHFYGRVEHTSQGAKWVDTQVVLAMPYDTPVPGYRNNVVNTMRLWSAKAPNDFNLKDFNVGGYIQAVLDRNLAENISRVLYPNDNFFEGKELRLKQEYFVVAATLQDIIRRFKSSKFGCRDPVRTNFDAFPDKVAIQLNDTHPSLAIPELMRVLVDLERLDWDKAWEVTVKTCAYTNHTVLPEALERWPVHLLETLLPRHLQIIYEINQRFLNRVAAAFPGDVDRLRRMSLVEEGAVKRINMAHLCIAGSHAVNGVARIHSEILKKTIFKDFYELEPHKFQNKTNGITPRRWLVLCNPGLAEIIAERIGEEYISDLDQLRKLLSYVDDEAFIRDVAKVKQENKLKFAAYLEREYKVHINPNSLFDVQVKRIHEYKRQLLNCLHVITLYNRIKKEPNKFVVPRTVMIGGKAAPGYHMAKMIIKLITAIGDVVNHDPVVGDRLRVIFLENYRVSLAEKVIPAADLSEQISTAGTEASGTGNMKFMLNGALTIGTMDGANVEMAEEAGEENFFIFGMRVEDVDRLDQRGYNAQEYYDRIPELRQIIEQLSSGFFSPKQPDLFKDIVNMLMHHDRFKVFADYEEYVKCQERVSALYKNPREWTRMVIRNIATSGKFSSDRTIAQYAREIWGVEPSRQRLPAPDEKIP
Assay: Enzyme Inhibition Assay (malachite green phosphate readout)
Assay type: biochemical
Details: +/−.05

## O=C(NCc1cccs1)c1ccc(Nc2nc3ccccc3n(CCN3CCCCC3)c2=O)cc1 [Compound 62]
  IC50: 420 nM

Reference: patent publication US20050148586A1 (priority 2004, published 2005)
